Cyclic peptide permeability, from CycPeptMPDB

Source: CycPeptMPDB (Li et al. 2023), which took these values from Furukawa et al. 2016, doi:10.1021/acs.jmedchem.6b01246.

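Lipid, pH, incubation time, direction and concentration are not recorded in the data file. Other peptides of the study may be missing here. Entries at the database's floor value (log10 P of -10) are not listed.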

PAMPA is the parallel artificial membrane permeability assay, which has no cells and reads passive diffusion.
Values are log10 P with P in cm/s, so -5 is more permeable than -7.

CCCC[C@@H]1NC(=O)[C@H](CC(C)C)N(C)C(=O)CN(CC2CCOCC2)C(=O)[C@@H](Cc2ccccc2)NC(=O)CN(CC)C(=O)[C@H]2CCCN2C1=O has PAMPA -6.92 (log10 cm/s).
CCCCCN1CC(=O)N(C)[C@@H](CC(C)C)C(=O)N[C@@H](CCCC)C(=O)N2CCC[C@@H]2C(=O)N(CC)CC(=O)N[C@@H](Cc2ccccc2)C1=O has PAMPA -5.10 (log10 cm/s).
CCCCCN1CC(=O)N[C@H](CC(C)C)C(=O)N[C@@H](CCCC)C(=O)N2CCC[C@@H]2C(=O)N(CCCOC(C)C)CC(=O)N[C@H](C)C1=O has PAMPA -5.81 (log10 cm/s).
CCCCCN1CC(=O)N(C)[C@@H](CC(C)C)C(=O)N[C@@H](CCCC)C(=O)N2CCC[C@@H]2C(=O)N(Cc2ccc3c(c2)OCO3)CC(=O)N[C@H](C)C1=O has PAMPA -5.45 (log10 cm/s).
CCCC[C@@H]1NC(=O)[C@H](CC(C)C)N(C)C(=O)CN(CC2CCOCC2)C(=O)[C@@H](C)NC(=O)CN(Cc2ccc3c(c2)OCO3)C(=O)[C@H]2CCCN2C1=O has PAMPA -6.66 (log10 cm/s).
CCCC[C@@H]1NC(=O)[C@@H](CC(C)C)N(C)C(=O)CN(CC2CCCCC2)C(=O)[C@H](C)NC(=O)CN(CCCOC(C)C)C(=O)[C@H]2CCCN2C1=O has PAMPA -4.86 (log10 cm/s).
CCCC[C@@H]1NC(=O)[C@H](CC(C)C)NC(=O)CN(CC2CCOCC2)C(=O)[C@@H](C)NC(=O)CN(CC)C(=O)[C@H]2CCCN2C1=O has PAMPA -8.80 (log10 cm/s).
CCCC[C@@H]1NC(=O)[C@H](CC(C)C)N(C)C(=O)CN(CC2CCCCC2)C(=O)[C@@H](C)NC(=O)CN(CC)C(=O)[C@@H]2CCCN2C1=O has PAMPA -5.32 (log10 cm/s).
CCCCCN1CC(=O)N[C@H](CC(C)C)C(=O)N[C@@H](CCCC)C(=O)N2CCC[C@@H]2C(=O)N(Cc2ccc3c(c2)OCO3)CC(=O)N[C@@H](C)C1=O has PAMPA -4.99 (log10 cm/s).
CCCC[C@@H]1NC(=O)[C@H](CC(C)C)N(C)C(=O)CN(CC2CCCCC2)C(=O)[C@H](C)NC(=O)CN(CCCOC(C)C)C(=O)[C@@H]2CCCN2C1=O has PAMPA -4.83 (log10 cm/s).
CCCC[C@@H]1NC(=O)[C@@H](CC(C)C)NC(=O)CN(CC2CCOCC2)C(=O)[C@H](C)NC(=O)CN(Cc2ccc3c(c2)OCO3)C(=O)[C@H]2CCCN2C1=O has PAMPA -6.05 (log10 cm/s).
CCCCCN1CC(=O)N[C@@H](CC(C)C)C(=O)N[C@@H](CCCC)C(=O)N2CCC[C@@H]2C(=O)N(CC)CC(=O)N[C@@H](C)C1=O has PAMPA -6.52 (log10 cm/s).
CCCC[C@@H]1NC(=O)[C@H](CC(C)C)N(C)C(=O)CN(CC2CCOCC2)C(=O)[C@H](Cc2ccccc2)NC(=O)CN(CC)C(=O)[C@H]2CCCN2C1=O has PAMPA -5.18 (log10 cm/s).
CCCC[C@@H]1NC(=O)[C@@H](CC(C)C)N(C)C(=O)CN(CC2CCCCC2)C(=O)[C@H](Cc2ccccc2)NC(=O)CN(CC)C(=O)[C@@H]2CCCN2C1=O has PAMPA -5.01 (log10 cm/s).
CCCC[C@@H]1NC(=O)[C@@H](CC(C)C)N(C)C(=O)CN(CC2CCOCC2)C(=O)[C@@H](Cc2ccccc2)NC(=O)CN(CC)C(=O)[C@H]2CCCN2C1=O has PAMPA -5.70 (log10 cm/s).
CCCC[C@@H]1NC(=O)[C@H](CC(C)C)NC(=O)CN(CC2CCCCC2)C(=O)[C@H](C)NC(=O)CN(CCCOC(C)C)C(=O)[C@@H]2CCCN2C1=O has PAMPA -5.70 (log10 cm/s).
CCCC[C@@H]1NC(=O)[C@@H](CC(C)C)N(C)C(=O)CN(CC2CCOCC2)C(=O)[C@@H](Cc2ccccc2)NC(=O)CN(CCCOC(C)C)C(=O)[C@@H]2CCCN2C1=O has PAMPA -5.81 (log10 cm/s).

The first 2 entries again:

Listed for CCCC[C@@H]1NC(=O)[C@H](CC(C)C)N(C)C(=O)CN(CC2CCOCC2)C(=O)[C@@H](Cc2ccccc2)NC(=O)CN(CC)C(=O)[C@H]2CCCN2C1=O: PAMPA -6.92 (log10 cm/s).
Listed for CCCCCN1CC(=O)N(C)[C@@H](CC(C)C)C(=O)N[C@@H](CCCC)C(=O)N2CCC[C@@H]2C(=O)N(CC)CC(=O)N[C@@H](Cc2ccccc2)C1=O: PAMPA -5.10 (log10 cm/s).